Measured values published in patent US20240034987A1, “SUPPLEMENTED SERUM-FREE MEDIA FOR CULTURED MEAT PRODUCTION” (Trustees of Tufts College, priority 2020, published 2024).

How the values were obtained:
Assay type in all cases: cell-based
[1] = tested on: bovine satellite cells (BSCs); test: Short-term growth analysis (3 and 4 days, dsDNA quantitation, brightfield imaging)
Description: Homemade B8 medium was prepared using store-bought components and a previously described formulation and method of preparation. See, Kuo, H. H. et al. Negligible-Cost and Weekend-Free Chemically Defined Human iPSC Culture. Stem Cell Reports 14, 256-270. Table 1 includes the formulation. Additionally, HiDef-B8 medium aliquots were generously provided by Defined Bioscience (Defined Bioscience #LSS-201, San Diego, CA, USA) and added DMEM/F12 with 1% antibiotic/antimycotic. Short term BSC growth (3 and 4 days) was analyzed for mixtures of serum-containing and serum-free media, as well as for pure B8 media with reduced growth factor concentrations and/or with the addition of various media supplements (Table 2). Briefly, BSCs were thawed (passage number <2) and plated in BSC-GM on 96-well tissue-culture plastic plates for each timepoint at a density of 2,500 cells/cm^2 with 0.25 ug/cm^2 iMatrix recombinant laminin-511. After 24 hours, BSC-GM was removed, cells were washed 1× with DPBS, and new media (e.g., B8+/−supplementation) was added. A list of supplements and concentrations can be found in Table 2. Media was changed on day 3, and on days 3 and 4 cells were imaged, media was aspirated from appropriate plates, and plates were frozen at −80° C. Once all timepoints were frozen, cell number was analyzed using a FluoReporter dsDNA quantitation kit (ThermoFisher #F2962) according to the recommended protocol and with fluorescence readings performed on a Synergy H1 microplate reader (BioTek Instruments, Winooski, VT, USA) using excitation and emission filters centered at 360 and 490 nm, respectively. Cell number at 3 and 4 days was analyzed relative to pure B8 or HiDef media.

[2] = tested on: bovine satellite cells (BSCs); test: Long-term growth analysis (seven passages over 28 days, cell counts); settings: for final (28-day) cell yield compared with 0.8 mg/mL: starting population 24,000
Description: For generating long-term growth curves, BSCs were thawed and plated (P1) onto 6-well culture plates (triplicate wells) in BSC-GM with 0.25 ug/cm^2 iMatrix laminin-511. After allowing cells to adhere overnight, media was removed, cells were washed 1× with DPBS, and either BSC-GM, B8, Beefy-9 (40 ng/mL FGF-2) or Beefy-9 (5 ng/mL FGF-2) were added to cells. Upon reaching ˜70% confluency, cells were rinsed with DPBS, harvested with TrypLE Express, and counted using an NC-200 automated cell counter (duplicate counts for each well). Cells were then pelleted at 300 g, resuspended in BSC-GM or B8 media, re-counted, and seeded onto new 6-well plates at 2,500 cells/cm^2 with 0.25 ug/cm^2 iMatrix laminin-511 (cells in BSC-GM) or 1.5 ug/cm^2 recombinant vitronectin (cells in B8). After allowing cells to adhere overnight, media was replaced with appropriate media (BSC-GM, B8, Beefy-9 (40 ng/mL FGF-2) or Beefy-9 (5 ng/mL FGF-2). This process was repeated over 28 days and seven passages. Throughout culture, cells were fed every two days. When seeding cells for passages 2, 4, 6, and 7, additional wells were seeded for staining for myosin heavy chain (P2, P4 and P6) or lipid accumulation (P7).
Statistical analysis was performed with GraphPad Prism 9.0 software (San Diego, CA, USA). Short-term cell growth analyses were performed via one-way or two-way ANOVA, as appropriate, with multiple comparisons performed with the Tukey's HSD post-hoc test. Regression analysis (FIG. 3A) was performed via nonlinear regression (least squares; exponential (Malthusian) growth) and is shown alongside 95% confidence interval. Doubling time (FIG. 5B) was determined through nonlinear regression (least squares; exponential (Malthusian) growth) for each biological replicate (well) of each passage, using technical replicates (duplicate counts) in generating nonlinear regressions. P values <0.05 were treated as significant. Unless otherwise stated, errors are given as ±standard deviation.

[3] = tested on: bovine satellite cells (BSCs); test: Serum-free differentiation, myosin heavy chain staining / fusion index; settings: 6.4 mg/mL rAlbumin (especially with reduced FGF)
Description: Throughout long-term culture, a population of cells at passages 2, 4, and 6 were cultured to confluency in serum-containing or serum-free conditions, and media was changed to a previously described serum-free differentiation media consisting of Neurobasal (Invitrogen #21103049, Carlsbad, CA, USA) and L15 (Invitrogen #11415064) basal media (1:1) supplemented with 1% antibiotic/antimycotic, 10 ng/mL insulin-like growth factor 1 (IGF-1; Shenandoah Biotechnology #100-34AF-100UG, Warminster, PA, USA) and 100 ng/mL epidermal growth factor (EGF; Shenandoah Biotechnology #100-26-500UG). Cells were differentiated for 4-6 days (changing media every two days).
To verify myogenicity of cells differentiated in serum-free media, cells from above were fixed, stained, and imaged as previously described, using primary antibodies for MHC (Developmental studies hybridoma bank #MF-20), phalloidin 594 (1:100), appropriate secondary antibodies (ThermoFisher #A-11001, 1:1000), and Fluoroshield mounting medium with DAPI.

rAlbumin: recombinant human albumin, media supplement (Sigma A9731-1G)
role in growth improvement by combinations of supplements ([1]; rAlbumin 800 μg/mL in B8 with combinations of factors, 4 days): driving factor in all significant improvements | improvement in 4-day growth compared to Beefy-9's 800 ug/mL ([1]; rAlbumin 11.2 mg/mL (highest concentration)): 8.5 fold | short-term growth with increasing rAlbumin concentration ([1]; rAlbumin over 800 ug/mL up to 11.2 mg/mL, 3 & 4 days): drastic increase in growth | improvement in growth compared with plain B8 ([1]; supplement added to B8, growth over four days): ~4 fold | BSC proliferation compared to B8 media alone ([1]; supplement in B8, range of concentrations, growth over four days): significantly improved | growth compared with 0.8 mg/mL rAlbumin at day 28 ([2]; 1.6 mg/mL rAlbumin): No improvement | growth compared with 0.8 mg/mL rAlbumin at earlier passages ([2]; 1.6 mg/mL rAlbumin): consistent improvement | final (28-day) cell yield compared with 0.8 mg/mL ([2]; 3.2 mg/mL rAlbumin): significant increases in cell yield | final (28-day) cell yield compared with 0.8 mg/mL ([2]; 6.4 mg/mL rAlbumin): significant increases in cell yield | degree of MF20 staining, myotube density and diameter [3]: reduced
